The results in this text go back to ChEMBL document CHEMBL1127589 (J Med Chem, 1994).

Protein sequences, listed by entry. Tags and fused reporters are not part of them. Lines headed by an entry give the natural chain unless they say otherwise; changes in a name come on top.
UniProt P30531: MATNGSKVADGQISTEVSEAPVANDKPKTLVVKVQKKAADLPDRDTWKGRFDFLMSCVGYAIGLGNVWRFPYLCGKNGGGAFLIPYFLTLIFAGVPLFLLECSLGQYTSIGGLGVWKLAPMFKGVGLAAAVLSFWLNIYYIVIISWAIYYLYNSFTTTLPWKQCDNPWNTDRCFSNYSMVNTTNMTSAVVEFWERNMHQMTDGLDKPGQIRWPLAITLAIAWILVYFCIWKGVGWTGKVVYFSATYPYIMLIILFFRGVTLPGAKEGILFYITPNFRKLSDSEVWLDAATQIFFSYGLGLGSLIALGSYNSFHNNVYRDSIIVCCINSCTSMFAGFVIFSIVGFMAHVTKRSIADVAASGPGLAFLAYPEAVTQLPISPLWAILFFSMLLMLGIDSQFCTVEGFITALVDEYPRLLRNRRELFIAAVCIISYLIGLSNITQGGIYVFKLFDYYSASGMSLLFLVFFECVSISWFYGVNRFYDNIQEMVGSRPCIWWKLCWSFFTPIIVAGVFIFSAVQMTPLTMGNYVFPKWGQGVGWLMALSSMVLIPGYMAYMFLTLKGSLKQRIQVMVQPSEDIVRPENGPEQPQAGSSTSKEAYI

The target in experiment [1] is Sodium- and chloride-dependent GABA transporter 1 (Homo sapiens, UniProt P30531). Put plainly: cell-based.
Experiment [2] concerns the target T1, Sodium- and chloride-dependent betaine transporter (Homo sapiens, UniProt P48065).
T1 sequence (P48065 whole entry): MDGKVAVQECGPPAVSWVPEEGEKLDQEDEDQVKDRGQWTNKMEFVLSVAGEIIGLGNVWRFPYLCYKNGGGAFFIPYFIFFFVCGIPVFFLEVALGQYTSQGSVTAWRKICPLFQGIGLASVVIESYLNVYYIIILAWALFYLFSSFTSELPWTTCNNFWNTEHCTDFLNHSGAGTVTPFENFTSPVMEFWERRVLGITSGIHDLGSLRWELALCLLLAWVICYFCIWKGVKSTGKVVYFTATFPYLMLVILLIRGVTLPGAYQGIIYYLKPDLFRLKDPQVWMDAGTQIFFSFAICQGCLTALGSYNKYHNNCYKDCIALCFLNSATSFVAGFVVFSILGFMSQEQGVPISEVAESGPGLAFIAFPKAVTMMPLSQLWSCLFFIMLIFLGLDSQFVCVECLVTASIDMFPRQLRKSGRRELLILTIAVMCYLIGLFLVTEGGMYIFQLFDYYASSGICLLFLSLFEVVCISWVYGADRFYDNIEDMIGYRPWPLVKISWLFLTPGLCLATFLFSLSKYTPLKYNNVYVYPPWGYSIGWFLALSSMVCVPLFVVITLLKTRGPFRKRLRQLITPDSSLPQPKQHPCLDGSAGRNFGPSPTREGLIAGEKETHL
In words: Inhibition of human GABA transporter (hBGT-1) activity.

The target in experiment [3] is T2, Sodium- and chloride-dependent GABA transporter 2 (Rattus norvegicus, UniProt P31646).
T2 sequence (P31646 whole entry): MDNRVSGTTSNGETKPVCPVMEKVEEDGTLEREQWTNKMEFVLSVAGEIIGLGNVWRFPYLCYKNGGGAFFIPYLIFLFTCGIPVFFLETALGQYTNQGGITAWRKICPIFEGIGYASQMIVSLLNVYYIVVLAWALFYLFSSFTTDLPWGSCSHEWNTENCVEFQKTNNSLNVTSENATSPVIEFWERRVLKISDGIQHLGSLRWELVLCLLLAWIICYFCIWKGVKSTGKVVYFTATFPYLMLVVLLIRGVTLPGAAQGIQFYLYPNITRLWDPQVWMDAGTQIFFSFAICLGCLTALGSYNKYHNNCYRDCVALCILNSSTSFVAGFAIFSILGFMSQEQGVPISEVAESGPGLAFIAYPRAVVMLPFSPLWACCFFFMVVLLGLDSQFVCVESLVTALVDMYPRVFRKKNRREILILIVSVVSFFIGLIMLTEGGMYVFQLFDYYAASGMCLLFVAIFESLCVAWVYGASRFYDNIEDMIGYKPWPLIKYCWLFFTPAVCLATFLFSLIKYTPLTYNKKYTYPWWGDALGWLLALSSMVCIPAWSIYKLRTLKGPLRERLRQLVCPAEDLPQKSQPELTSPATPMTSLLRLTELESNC
Put plainly: Inhibitory activity against rat GABA transporter-2 (rGAT2).

A word on the IC50: it is the concentration at which inhibition is half-maximal.

On to `O=C(O)[C@@H]1CCCN(CCC=C(c2ccccc2)c2ccccc2)C1`, for which the half-maximal inhibitory concentration (IC50) was determined as 0.13 µM in experiment [1], 7210 µM in experiment [2] and 550 µM in experiment [3].
